Apparent affinities of Ab-14 variants for a coronavirus HR2 peptide

Data: MIT Lincoln Laboratory AlphaSeq set, Li et al. 2023, doi:10.1038/s41467-023-39022-2, as distributed in FLAb.

The target is the same throughout: PDVDLGDISGINAS, from the HR2 region of SARS-CoV-2 spike.

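The parent was found by panning a naive human phage display library on the peptide. Designed CDR sequences, proposed from the first random library and measured here. Group labels follow the data file (Ctrl: baseline library sampled from a position-specific scoring matrix, with some repeated check sequences; Rand: our label for a block that the file lists under HC and that is probably the random mutants of the ten best first-round binders; En: ensemble of fine-tuned language models; GP: Gaussian process model; GPLM: also part of the Gaussian process libraries; HC: hill climbing; Gen: genetic algorithm; Gibbs: Gibbs sampling; a sequence that several methods proposed may carry one label only). Affinity was read by AlphaSeq, a pooled yeast mating assay with surface-displayed partners. Binding brings cells together so that they mate, and sequencing counts the barcode pairs among the diploids. The ratio of observed to expected reads was calibrated, replicate by replicate, on BCL2-family standards whose Kd was known from biolayer interferometry. The assay was run in six technical replicates.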

Each scFv is VH, three GGGGS repeats, VL, as in the parent Ab-14, and differs from it in the CDRs of the heavy chain only.
VH: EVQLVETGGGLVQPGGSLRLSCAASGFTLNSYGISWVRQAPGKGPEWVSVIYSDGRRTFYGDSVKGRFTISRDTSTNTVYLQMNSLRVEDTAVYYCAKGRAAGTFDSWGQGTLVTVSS
VL: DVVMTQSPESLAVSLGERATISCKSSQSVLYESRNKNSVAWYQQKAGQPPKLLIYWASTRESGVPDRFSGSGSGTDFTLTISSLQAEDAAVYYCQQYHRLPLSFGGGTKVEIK

Sequences are complete VH domains.
Values are log10 of the apparent Kd in nM; lower means stronger binding.
Replicates are averaged; those with no signal do not enter the mean.
"nd" marks a missing value. The strain was present, yet no cells mated with the target were sequenced in any replicate, which points to weak or no binding.
The list is sorted by this average, lowest first, undetected variants last.
Empty control strains, which show no peptide, gave a signal in 1% of pairings with all heavy chain designs; the median was 2.08 and 95% of these signals were weaker than 0.84. No background was subtracted. Also given: how often the same scFv was detected with the empty control strains.
A sequence measured in both rounds can read differently, since the two assays cover different ranges.
The authors averaged sequences with at least three values out of six and counted those with two or fewer as poor binders.
Of ten entries with the parent sequence, four were seen in most replicates (averages 0.34 to 2.37), three in one and three in none, so single entries are noisy.

VH,group,mean log10 Kd (nM),detected,control signals
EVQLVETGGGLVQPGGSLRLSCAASGFDLNEYGISWVRQAPGKGPEWVSVIYADGRRTAYADSVKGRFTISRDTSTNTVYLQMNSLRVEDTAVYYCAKGQLAGTFDTWGQGTLVTVSS,En_HC,-0.53,6 of 6,0 of 18
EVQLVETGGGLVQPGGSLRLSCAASGFDLNSYGISWVRQAPGKGPEWVSVIYSDGRRTFYGDSVKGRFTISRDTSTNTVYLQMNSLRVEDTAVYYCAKGRCAGTFKVWGQGTLVTVSS,Ctrl,-0.33,1 of 6,0 of 18
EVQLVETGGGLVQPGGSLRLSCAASGFDLNEYGISWVRQAPGKGPEWVSVIYADGRRTFYTDSVKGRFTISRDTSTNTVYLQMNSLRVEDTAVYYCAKGEMAGTFDQWGQGTLVTVSS,En_HC,-0.32,6 of 6,0 of 18
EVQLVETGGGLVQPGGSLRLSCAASGFDLDEYGISWVRQAPGKGPEWVSVIYADGRRTFYADSVKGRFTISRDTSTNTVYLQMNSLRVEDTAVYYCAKGTNAGTFDSWGQGTLVTVSS,En_HC,-0.30,6 of 6,0 of 18
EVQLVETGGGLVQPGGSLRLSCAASGFDLNEYGISWVRQAPGKGPEWVSVIYADGQRTVYADSVKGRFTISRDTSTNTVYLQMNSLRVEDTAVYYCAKGENAGTFDVWGQGTLVTVSS,En_Gen,-0.18,6 of 6,0 of 18
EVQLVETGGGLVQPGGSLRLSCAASGFDLDEYGISWVRQAPGKGPEWVSVIYADGRRTAYADDVKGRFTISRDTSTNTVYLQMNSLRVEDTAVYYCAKGNQAGTFDVWGQGTLVTVSS,En_Gen,0.05,6 of 6,0 of 18
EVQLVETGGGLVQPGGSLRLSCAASGFDLNSYGISWVRQAPGKGPEWVSVIYSDGKRTFYGDSVKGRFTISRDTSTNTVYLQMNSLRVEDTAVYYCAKGRQAGTFDVWGQGTLVTVSS,GP_Gibbs,0.32,6 of 6,0 of 18
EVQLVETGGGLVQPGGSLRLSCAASYFELNSYGISWVRQAPGKGPEWVSVIYSDGRRTFYGDSVKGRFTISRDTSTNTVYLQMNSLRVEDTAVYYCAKGNEAGTFDTWGQGTLVTVSS,GP_Gibbs,0.42,1 of 6,0 of 18
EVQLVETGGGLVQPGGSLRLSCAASGFTLNEYGISWVRQAPGKGPEWVSVIYSDGRRTFYTDSVKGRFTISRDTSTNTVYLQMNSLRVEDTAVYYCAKGRFAGTFDGWGQGTLVTVSS,GPLM_HC,0.44,3 of 6,0 of 18
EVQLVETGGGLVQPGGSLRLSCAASGFNLNSYGISWVRQAPGKGPEWVSVIYSDGRRTFYADKVKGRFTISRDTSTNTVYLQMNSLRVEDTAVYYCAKGQTAGTFDSWGQGTLVTVSS,GP_Gibbs,0.46,6 of 6,0 of 18
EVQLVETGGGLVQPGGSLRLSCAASGFTLNSYGISWVRQAPGKGPEWVSVIYSDGKRTFYSDSVKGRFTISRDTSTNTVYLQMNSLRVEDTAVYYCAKGEAAGTFDSWGQGTLVTVSS,GPLM_Gen,0.81,6 of 6,0 of 18
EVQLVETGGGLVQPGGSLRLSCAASGFQLNSYGISWVRQAPGKGPEWVSVIYSDGRRTAYGDQVKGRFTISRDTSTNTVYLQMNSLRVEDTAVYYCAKGQAAGTFDSWGQGTLVTVSS,GP_Gibbs,0.96,6 of 6,0 of 18
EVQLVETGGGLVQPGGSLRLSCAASGFNLNSYGISWVRQAPGKGPEWVSVIYSDGRRTFYGDSVKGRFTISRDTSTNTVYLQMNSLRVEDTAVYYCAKGVKAGTFDSWGQGTLVTVSS,GP_Gibbs,1.14,6 of 6,0 of 18
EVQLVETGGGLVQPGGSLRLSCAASGFTLESYGISWVRQAPGKGPEWVSVIYSDGRRTFYHDSVKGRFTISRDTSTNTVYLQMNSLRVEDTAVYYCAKGRAAGTFTSWGQGTLVTVSS,GP_HC,1.16,4 of 6,0 of 18
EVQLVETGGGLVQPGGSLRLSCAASGFYLNSYGISWVRQAPGKGPEWVSVIYSDGRRTFYGDSVKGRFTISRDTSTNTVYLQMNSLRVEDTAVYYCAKGRTAGTFDSWGQGTLVTVSS,GPLM_Gen,1.37,1 of 6,1 of 18
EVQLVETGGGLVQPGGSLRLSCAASGFTLNEYGISWVRQAPGKGPEWVSVIYSDGGRTHYTDSVKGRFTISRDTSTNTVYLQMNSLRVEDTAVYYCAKGREAGTFDSWGQGTLVTVSS,Rand,1.38,5 of 6,0 of 18
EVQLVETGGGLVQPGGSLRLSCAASGFTLNSYGISWVRQAPGKGPEWVSVIYSDGVRTFYGDSVKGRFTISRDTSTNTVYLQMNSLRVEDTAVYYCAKGRAAGTFDSWGQGTLVTVSS,Ctrl,1.50,5 of 6,0 of 18
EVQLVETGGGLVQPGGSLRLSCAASGKDLQEYGVSWVRQAPGKGPEWVSVIYADGMRKSYADSVKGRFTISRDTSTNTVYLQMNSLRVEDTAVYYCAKGQHAGYLDKWGQGTLVTVSS,En_Gibbs,nd,0 of 6,0 of 18
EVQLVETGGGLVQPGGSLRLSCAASGFNLSEYGISWVRQAPGKGPEWVSVIYADGKKTQYSNAVKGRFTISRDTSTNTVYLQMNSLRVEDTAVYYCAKGANGGTFNVWGQGTLVTVSS,En_Gibbs,nd,0 of 6,0 of 18
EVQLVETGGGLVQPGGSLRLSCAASGEDLNSYGISWVRQAPGKGPEWVSVIYADGLRTVYSDNFKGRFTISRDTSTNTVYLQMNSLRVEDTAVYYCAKGNLGGQFDMWGQGTLVTVSS,En_Gibbs,nd,0 of 6,0 of 18
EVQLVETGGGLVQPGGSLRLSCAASGFGLDEYGISWVRQAPGKGPEWVSVIYADGMRANYATSVKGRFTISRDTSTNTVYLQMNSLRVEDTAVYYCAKGYQAGVISTWGQGTLVTVSS,En_Gibbs,nd,0 of 6,0 of 18
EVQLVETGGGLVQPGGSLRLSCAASGFNLEEYGISWVRQAPGKGPEWVSVIYADGTRTAYLDTVKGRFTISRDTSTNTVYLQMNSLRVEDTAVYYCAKGVTGGTFIMWGQGTLVTVSS,En_Gibbs,nd,0 of 6,0 of 18
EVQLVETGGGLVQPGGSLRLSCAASGFTINSYGISWVRQAPGKGPEWVSVIYSDGRRTFYGDSVKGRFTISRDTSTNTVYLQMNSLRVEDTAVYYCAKGRAEGFFDSWGQGTLVTVSS,Ctrl,nd,0 of 6,0 of 18